Only a part is listed here, and it is no random draw. The source made the active and inactive calls.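 The calls were made as follows: active = inhibition above the mean over all tested compounds plus 3 SD (cut at about 4.2% in these data); inactive = the rest.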
biological target: Nuclear receptor subfamily 0 group B member 1 (Homo sapiens) (UniProt P51843); assay: relief of DAX1 transcriptional repression – cell-based, HEK293, Gal4-DAX1, luciferase luminescence, primary screen (AID 504766); conditions: HEK293 Gal4-DAX1 luciferase reporter, at 6.75 µM, stronger effect = higher value;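 also: 0% = DAX1-transfected cells with DMSO and 100% = empty-vector control cells with DMSO; inhibition shows as a rise in luminescence from relieved DAX1 repression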

By UniProt entry, the sequences of proteins in these tests, tags left out. Residues count along the entry.
UniProt P51843, 207-470 limits assumed: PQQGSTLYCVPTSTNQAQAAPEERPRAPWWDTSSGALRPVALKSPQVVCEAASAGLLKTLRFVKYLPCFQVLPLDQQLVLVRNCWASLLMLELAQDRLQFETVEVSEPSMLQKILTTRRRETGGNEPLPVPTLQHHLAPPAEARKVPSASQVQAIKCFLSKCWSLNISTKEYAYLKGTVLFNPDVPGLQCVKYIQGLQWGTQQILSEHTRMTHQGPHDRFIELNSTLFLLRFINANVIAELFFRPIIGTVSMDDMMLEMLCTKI

Row | Compound | inhibition
1 | N#Cc1ccc(C(=O)NCC2(N3CCCCC3)CCCCC2)cc1 | inactive: -0.08%
2 | CC(C)(C)OC(=O)N1CCC(N(C(=O)c2ccccc2)c2ccc(Cl)cc2)CC1 | inactive: -1.77%
3 | CN(C)C1(CNC(=O)c2cccc(C#N)c2)CCCCC1 | inactive: 1.74%
4 | Cc1cc(N(CCCl)CCCl)ccc1C=O | inactive: -1.19%
5 | CCCN1CCC(Nc2cc(OC)cc(OC)c2)CC1 | inactive: 2.11%
6 | c1ccc(CN2CCC(Nc3ccccc3)CC2)cc1 | inactive: 1.71%
7 | COc1ccc(C(=O)NCC2(N3CCOCC3)CCCCC2)cc1OC | inactive: 3.55%
8 | COc1cc(C(=O)NCC2(N3CCOCC3)CCCCC2)cc(OC)c1C | inactive: 0.08%
9 | O=C(NCC1(N2CCOCC2)CCCCC1)c1cc(Br)ccc1Cl | inactive: 0.24%
10 | O=C(OC1CN2CCC1CC2)C1c2ccccc2C=Cc2ccccc21 (stereo not given) | inactive: 0.85%
11 | CCOC(=O)N1CCC(Nc2ccc(C)cc2)CC1 | inactive: -2.54%
12 | N/C(=N\O)c1c(N)no[n+]1[O-] | inactive: 0.32%
13 | O=C(O)C1(Nc2ccccc2)CCN(Cc2ccccc2)CC1 | inactive: -0.53%
14 | CC(C)(C)OC(=O)N1CCC(Nc2ccccc2)CC1 | inactive: -0.34%
15 | CCCOc1ccc(C(=O)NCC2(N(C)C)CCCCC2)cc1 | inactive: 0.8%
16 | CN1CCC(Nc2ccc(F)c(Cl)c2)CC1 | inactive: 1.69%
17 | CCOc1ncccc1C(=O)NCC1(N2CCOCC2)CCCCC1 | inactive: 3%
18 | CN1CCC(Nc2ccc(Cl)cc2)CC1 | inactive: 1.47%
19 | COc1cc(OC)cc(C(=O)NCC2(N3CCOCC3)CCCCC2)c1 | inactive: 1.12%
20 | COc1cccc(C(=O)N(c2cc(C)cc(C)c2)C2CCN(C(=O)OC(C)(C)C)CC2)c1 | inactive: 0.6%
21 | CCC(CO)(C(=O)OC1CN2CCC1CC2)c1ccccc1 (stereo not given) | inactive: 3.18%
22 | Fc1ccccc1NC1CCN(Cc2ccccc2)CC1 | inactive: -0.31%
23 | Cc1ccc(C(=O)NCC2(N3CCCCC3)CCCCC2)o1 | inactive: -0.13%
24 | Cc1ccc(NC2(C#N)CCN(Cc3ccccc3)CC2)cc1 | inactive: -0.93%
25 | CC(=O)N(c1ccccc1)C1CCNCC1 | inactive: -1.55%
26 | COc1cc(OC)cc(C(=O)NCC2(N3CCCCC3)CCCCC2)c1 | inactive: 0.11%
27 | CN(C)c1ccc(C(=O)NCC2(N3CCCCC3)CCCCC2)cc1 | inactive: 0.26%
28 | Cn1c(=O)[nH]cc(N(CCCl)CCCl)c1=O | inactive: -0.6%
29 | O=C(NCC1(N2CCCCC2)CCCCC1)c1ccco1 | inactive: 0.2%
30 | CCN1CCC(Nc2cccc(F)c2)CC1 | inactive: -0.24%
